Molecules are shown by their SMILES.

Protein sequences, listed by entry. Tags and fused reporters are not part of them.
UniProt P23443, whole entry T412E: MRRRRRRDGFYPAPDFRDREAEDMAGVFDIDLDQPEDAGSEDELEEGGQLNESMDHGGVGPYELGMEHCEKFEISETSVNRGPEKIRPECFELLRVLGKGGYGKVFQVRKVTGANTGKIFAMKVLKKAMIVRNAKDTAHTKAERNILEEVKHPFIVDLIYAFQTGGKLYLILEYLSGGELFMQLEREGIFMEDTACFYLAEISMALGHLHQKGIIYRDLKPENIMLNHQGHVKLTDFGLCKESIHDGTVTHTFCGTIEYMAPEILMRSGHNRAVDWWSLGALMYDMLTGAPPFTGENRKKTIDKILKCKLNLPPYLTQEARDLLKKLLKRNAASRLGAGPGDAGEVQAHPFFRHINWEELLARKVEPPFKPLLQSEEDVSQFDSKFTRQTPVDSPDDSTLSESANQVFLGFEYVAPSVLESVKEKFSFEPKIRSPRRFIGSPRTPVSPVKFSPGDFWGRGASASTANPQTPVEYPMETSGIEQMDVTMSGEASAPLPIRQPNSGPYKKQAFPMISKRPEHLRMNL

This note sets out measurements from US9145392B2, “Imidazole amines as modulators of kinase activity” (Merck Patent GmbH, priority 2011, dated 2015).

In this assay the target is P70S6K (T412E mutant) (Homo sapiens (Human), UniProt P23443, T412E). The experiment in a line: P70S6K enzyme assay. It counts as biochemical. The note with it: read-out: IC50 p70S6K.

In the case of `Cn1cc(-c2ccc(F)c(C(F)(F)F)c2)nc1C1CCN(c2ncnc(N)c2-c2ccc3[nH]ccc3c2)CC1`, the 50% inhibitory concentration (IC50) (as a rule, the point on the concentration scale where inhibition reaches its midpoint) came to 0.018 µM.
